Data taken from patent US7504407B2, “Compounds specific to adenosine A1 and A3 receptors and uses thereof” (OSI Pharmaceuticals, Inc., priority 2001, dated 2009).

Chains of the proteins cited; added tags and fusions are not shown.
UniProt P30542, whole entry: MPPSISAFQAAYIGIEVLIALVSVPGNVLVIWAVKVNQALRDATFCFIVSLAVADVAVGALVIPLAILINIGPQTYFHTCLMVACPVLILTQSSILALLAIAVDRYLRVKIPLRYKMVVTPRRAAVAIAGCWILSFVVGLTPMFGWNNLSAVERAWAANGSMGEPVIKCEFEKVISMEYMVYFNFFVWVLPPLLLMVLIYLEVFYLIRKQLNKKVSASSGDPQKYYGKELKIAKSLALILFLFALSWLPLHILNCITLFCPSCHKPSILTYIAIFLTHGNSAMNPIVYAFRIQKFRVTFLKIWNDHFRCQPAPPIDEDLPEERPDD

Molecular target: human A1 adenosine receptor (Homo sapiens, UniProt P30542)
Experiment: Fus1-LacZ β-galactosidase assay in yeast expressing human A1 adenosine receptor
Details: NECA concentration of 10^−8 M

For CCNC(=O)[C@H]1O[C@@H](n2cnc3c(N)ncnc32)[C@H](O)[C@@H]1O, which “stimulation of β-galactosidase activity” value is on record?
The value was “approximately 2 fold”.
